Biological target: Stearoyl-CoA desaturase 5 (Homo sapiens, UniProt Q86SK9)
Test: Inhibition of SDC1 and SCD5

The chains behind the UniProt entries cited, without tags or fusion partners. Where a name states a change or a piece, a line headed by the entry shows the natural chain unless it says otherwise.
UniProt Q86SK9: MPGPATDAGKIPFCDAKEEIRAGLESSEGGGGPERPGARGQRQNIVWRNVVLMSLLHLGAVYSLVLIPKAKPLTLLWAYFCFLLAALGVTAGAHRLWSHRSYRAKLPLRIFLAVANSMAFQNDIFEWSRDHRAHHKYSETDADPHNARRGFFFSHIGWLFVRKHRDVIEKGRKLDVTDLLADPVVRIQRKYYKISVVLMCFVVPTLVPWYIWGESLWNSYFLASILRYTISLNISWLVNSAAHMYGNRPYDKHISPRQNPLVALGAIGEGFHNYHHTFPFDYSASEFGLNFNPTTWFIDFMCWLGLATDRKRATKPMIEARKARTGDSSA

Cn1cc(OC(=O)N2CCC(Oc3cc(F)cc(F)c3)CC2)ccc1=O
IC50: 2760 nM

Source: BindingDB's records for US12268687 (Janssen Pharmaceutica, 2025)
